Bioassay records as filed in PubChem BioAssay.
Shown are actives, neighbours in structure and some others; about 1.9% of the full set was active somewhere.
ERp5 inh: blocks human ERp5 reductase activity on insulin | inhibition, % at 9.99 µM | ERp5 insulin aggregation, absorbance 650 nm, 90 min | AID 651711 | actives 0.05% (n = 350,000);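 active means mean replicate inhibition above about 25%, with every replicate also reaching it, limit read from the data, passing the limit was not always enough; inconclusive means only one of those two criteria met; inactive means neither criterion met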
PglD inh: inhibitors of Campylobacter jejuni PglD acetyltransferase. inhibition, % at 12.5 µM. purified PglD enzyme, DTNB colorimetric CoA detection. actives 0.098% (n = 360,000); in the data active means inhibition above about 16%, passing the limit was not always enough; inconclusive means no clear call, values can overlap the other calls
Yeast UUG start: modulators of yeast start codon fidelity, primary screen, whole organism, S. cerevisiae, single point, plate reader; activity score, % at 18.7 µM; actives 0.13% (n = 350,000); S. cerevisiae UUG-firefly luciferase reporter, luminescence/redox ratio;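 active = replicate mean at a twofold rise or more, about +100% in these data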;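 also: firefly luciferase made from a UUG start codon reports start codon fidelity; reporter light over untreated wells divided by growth signal over untreated wells; some hits fall short of that in this replicate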
ARNT TACC3 PPI: disrupts binding between human ARNT and TACC3. Q9Y6A5. AlphaScreen His-ARNT PAS-B/GST-TACC3 binding, luminescence; TACC3 fragment carries E629A point mutation. inhibition, % at 9.99 µM. actives 0.66% (n = 390,000). AID 623870;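 active means mean inhibition of replicates at least 50% and at least half of replicates each reaching 50%; inconclusive means half or more replicates reach 50% but mean below 50%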;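 further: 0% = complete ARNT plus TACC3 wells and 100% = ARNT alone without TACC3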
PDI turbidity: PDI (human) enzyme inhibition; P07237; PDI insulin aggregation turbidity, A650, 90 min; actives 0.052% (n = 350,000); inhibition, % at 10 µM;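 active means mean inhibition across replicates of 30% or more, whatever share of single replicates reach that level; inconclusive means mean inhibition below 30% while every single replicate reaches 30%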
FGF22 binding: binders of recombinant human FGF22 by thermal shift; SYPRO orange fluorescence; percent of sucrose octasulfate shift, DMSO zero; activity (Tm shift, normalised), % at 9.99 µM; actives 1.5% (n = 340,000); AID 651658;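 active means mean Tm shift, scaled 0 neutral to 100 positive control, at about 1.3% or above, every replicate too, limit read from the data; inconclusive means no clear call, values can overlap the other calls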
Numbers without * were called inactive; ? = inconclusive; . = no result given.

1. CN(C)CC(=O)N1[C@@H]2Cn3c(ccc(C4=CCCC4)c3=O)[C@H]1[C@@H](C(=O)NCC1CC1)[C@@H]2CO
2. C[C@@H]1CCCCO[C@@H](CN(C)C(=O)Nc2ccc(C(F)(F)F)cc2)[C@@H](C)CN([C@H](C)CO)C(=O)c2cc(NC(=O)C3CCCCC3)ccc2O1
3. Cc1c(C)c2c(OCC(=O)N3CCC[C@H]3C(=O)O)cc3c(c2oc1=O)CCC(C)(C)O3
4. Cc1ccc(S(=O)(=O)NCC[C@H]2CC[C@@H](NC(=O)c3cnccn3)[C@H](CO)O2)cc1
5. CNC[C@H]1Oc2ncc(C#Cc3ccccc3F)cc2C(=O)N([C@@H](C)CO)C[C@H]1C
screen / no. | 1 | 2 | 3 | 4 | 5
ERp5 inh | 4 | 6 | -1 | -5 | 5
PglD inh | -1 | 1 | 6 | 1 | 0
Yeast UUG start | 12 | 21 | 9 | 22 | 8
ARNT TACC3 PPI | 14 | -2 | 128* | 6 | 11
PDI turbidity | . | . | . | . | .
FGF22 binding | 0 | 0 | 0 | 0 | 0

6. COc1cc2nc(Nc3ccc(C)c(Cl)c3)nc(N)c2cc1OC
7. COc1cc2nc(Nc3ccc(C)c(C)c3)nc(N)c2cc1OC
8. Cc1ccc(Nc2nc(N)c3ccccc3n2)cc1Cl
9. Nc1nc(Nc2ccc(Cl)cc2)nc2ccccc12
10. CN(C)c1ccc(Nc2nc(N)c3ccccc3n2)cc1
screen / no. | 6 | 7 | 8 | 9 | 10
ERp5 inh | -3 | 0 | 0 | . | 1
PglD inh | 5 | -7 | 1 | 1 | 1
Yeast UUG start | -19 | -13 | -62 | -61 | -80
ARNT TACC3 PPI | 6 | 50* | 1 | 1 | 50*
PDI turbidity | -13 | 4 | 0 | -1 | -1
FGF22 binding | 0 | 0 | 2.2* | . | 0

3 structures out of the list, sorted by molar mass, descending.
6. COc1cc2nc(Nc3ccc(C)c(Cl)c3)nc(N)c2cc1OC
8. Cc1ccc(Nc2nc(N)c3ccccc3n2)cc1Cl
10. CN(C)c1ccc(Nc2nc(N)c3ccccc3n2)cc1
screen / no. | 6 | 8 | 10
ERp5 inh | -3 | 0 | 1
PglD inh | 5 | 1 | 1
Yeast UUG start | -19 | -62 | -80
ARNT TACC3 PPI | 6 | 1 | 50*
PDI turbidity | -13 | 0 | -1
FGF22 binding | 0 | 2.2* | 0

Following part:
11. O=C(CN(Cc1ccco1)C(=O)c1ccc(N2CCCC2=O)cc1)Nc1ccccc1C(F)(F)F
12. COc1ccccc1NC(=O)CN(Cc1ccco1)C(=O)c1ccc(N2CCCC2=O)cc1
13. CCOC(=O)c1c(-c2ccccc2Cl)cn2ccccc12
14. O=C(O)c1c(-c2ccc(Cl)cc2)cn2ccccc12
15. COc1ccc2c3c([nH]c2c1)[C@H](CO)N(C(=O)NC(C)C)CC31CN(C(=O)NC2CCCC2)C1
screen / no. | 11 | 12 | 13 | 14 | 15
ERp5 inh | 4 | -3 | . | -1 | .
PglD inh | . | . | -4 | . | .
Yeast UUG start | . | . | -4 | . | .
ARNT TACC3 PPI | -3 | 1 | -28 | 5 | .
PDI turbidity | 2 | 4 | -26 | 4 | .
FGF22 binding | 0 | 44* | . | 43* | 0

16. COc1ccc2c3c([nH]c2c1)[C@H](CO)N(C(=O)CN(C)C)CC31CCN(CC2CCCC2)CC1
17. COc1cccc(S(=O)(=O)N2CC3(CN(C(=O)Nc4cccc(F)c4)[C@H](CO)c4[nH]c5cc(OC)ccc5c43)C2)c1
18. COc1ccc2c3c([nH]c2c1)[C@@H](CO)N(C(=O)CN(C)C)CC31CCN(CC2CCCC2)CC1
19. Cc1ccccc1-c1ccc([C@@H]2[C@H]3CN(C(=O)c4ccncc4)CC(=O)N3[C@H]2CO)cc1
20. CNS(=O)(=O)c1cccc(C(=O)NCC(c2cccs2)N(C)C)c1 (stereo not given)
screen / no. | 16 | 17 | 18 | 19 | 20
ERp5 inh | 74* | 69* | 1 | -5 | .
PglD inh | . | . | . | . | -1
Yeast UUG start | . | . | . | . | -14
ARNT TACC3 PPI | . | . | . | . | -2
PDI turbidity | . | . | . | . | 17
FGF22 binding | 0 | 0 | 0 | 0 | .

21. Cc1ccc(NS(=O)(=O)c2cccc(C(=O)NCC(c3cccs3)N(C)C)c2)cc1 (stereo not given)
22. Oc1c(CNc2ccccc2)cc(COCc2ccccc2)c2cccnc12
23. OCCC1CN(Cc2cccn2-c2ccccn2)CCN1C1CCCCC1 (stereo not given)
24. Nc1ncnc2c(C3OC(CO)C(O)C3O)scc12 (stereo not given)
25. N/C(=N/O)c1ccccc1N1CCC(Cc2ccccc2)CC1
screen / no. | 21 | 22 | 23 | 24 | 25
ERp5 inh | 5 | 3 | -6 | 12 | 1
PglD inh | -2 | -3 | . | . | .
Yeast UUG start | 8 | -48 | . | . | .
ARNT TACC3 PPI | 5 | 57* | -2 | 0 | 4
PDI turbidity | -3 | -11 | ? | -8 | -1
FGF22 binding | 43* | 41 | 44* | 43* | 44*

26. CO[C@H]1CN(C)C(=O)c2ccc(NC(=O)c3cnccn3)cc2OC[C@@H](C)N(CCc2ccccc2)C[C@@H]1C
27. C[C@H](CO)N1C[C@H](C)[C@@H](CN(C)Cc2ccccc2)Oc2ccc(NC(=O)CCN3CCOCC3)cc2C1=O
28. NS(=O)(=O)c1ccc(N=NN2CCCCC2)cc1
29. O=C(Cn1cc(COc2c(Br)cc(F)cc2Br)nn1)c1ccc(O)cc1
30. O=C(Cn1cc(COc2c(F)c(F)c(Br)c(F)c2F)nn1)c1ccc(O)cc1
screen / no. | 26 | 27 | 28 | 29 | 30
ERp5 inh | 1 | -2 | -4 | -8 | 0
PglD inh | 2 | -1 | . | 2 | 2
Yeast UUG start | . | 20 | . | 33 | -2
ARNT TACC3 PPI | 1 | -2 | -9 | 0 | -3
PDI turbidity | . | . | -6 | 0 | -5
FGF22 binding | 0 | 0 | 43* | 0 | 1.8*

31. CCCC(=O)Nc1ccc2c(c1)OC[C@@H](C)N(C(=O)c1ccncc1)C[C@@H](C)[C@@H](OC)CN(C)C2=O
32. c1ccc(CSc2ccc(-c3cccs3)nn2)cc1
33. c1ccc(CSc2ccc(-c3cccs3)nn2)nc1
34. CC#CCOCC1CN(C)C(=O)O1 (stereo not given)
35. CCCCN1CC(COc2ccccc2)OC1=O (stereo not given)
screen / no. | 31 | 32 | 33 | 34 | 35
ERp5 inh | 1 | . | -3 | -3 | .
PglD inh | 0 | -1 | . | 4 | -6
Yeast UUG start | 11 | -19 | . | 9 | -8
ARNT TACC3 PPI | -2 | 0 | -5 | . | -34
PDI turbidity | . | -2 | 6 | -2 | 12
FGF22 binding | 0 | . | 44* | 43* | .

36. COc1ccc(C(=O)CSc2nnc(CN3CCCC3)n2-c2ccc(F)cc2)c(OC)c1
37. COc1ccc(C(=O)CSc2nnc(CN3CCCCC3)n2-c2ccc(F)cc2)cc1OC
38. COc1ccccc1C(=O)Nc1ccc(-c2nnn(CC(=O)N3CCOCC3)n2)cc1
39. C[C@@H]1CN([C@@H](C)CO)C(=O)c2cc(NC(=O)Nc3ccc4c(c3)OCO4)ccc2O[C@@H](C)CCCCO[C@H]1CN(C)CC1CCCCC1
40. C[C@@H]1CCCCO[C@H](CN(C)CC2CCCCC2)[C@H](C)CN([C@@H](C)CO)C(=O)c2cc(NC(=O)Nc3cccc4ccccc34)ccc2O1
screen / no. | 36 | 37 | 38 | 39 | 40
ERp5 inh | 3 | . | 0 | -19 | 6
PglD inh | . | . | -2 | 3 | 8
Yeast UUG start | . | . | -6 | 5 | 11
ARNT TACC3 PPI | 5 | -1 | 27 | 13 | 34
PDI turbidity | 8 | -15 | 3 | . | .
FGF22 binding | 44* | . | 44* | 1.4* | 0

41. C[C@@H]1CCCCO[C@H](CN(C)CC2CCCCC2)[C@H](C)CN([C@H](C)CO)C(=O)c2cc(NC(=O)Nc3cccc4ccccc34)ccc2O1
42. C[C@H](CO)N1C[C@H](C)[C@@H](CN(C)CC2CCCCC2)OCCCC[C@H](C)Oc2ccc(NC(=O)Nc3cccc4ccccc34)cc2C1=O
43. C[C@@H]1CCCCO[C@@H](CN(C)CC2CCCCC2)[C@@H](C)CN([C@@H](C)CO)C(=O)c2cc(NC(=O)Nc3cccc4ccccc34)ccc2O1
44. C[C@H]1CN([C@@H](C)CO)S(=O)(=O)c2ccc(-c3cccnc3)cc2O[C@@H]1CN(C)C(=O)C1CCCCC1
45. CNC(=O)/C(C#N)=C/c1ccc(-c2ccc(Cl)cc2)o1
screen / no. | 41 | 42 | 43 | 44 | 45
ERp5 inh | 1 | -1 | 0 | -1 | 1
PglD inh | 9 | 10 | 2 | 5 | .
Yeast UUG start | 14 | 12 | 15 | 9 | .
ARNT TACC3 PPI | 19 | 35 | 8 | 4 | 3
PDI turbidity | . | . | . | . | 2
FGF22 binding | 1.3* | 1.5* | 1.5* | 0 | 1.5*
